Here are results for two molecules from PubChem BioAssay AID651596 (Sanford-Burnham Center for Chemical Genomics, 2012).

Protein sequences, listed by entry. Tags and fused reporters are not part of them.
UniProt O14763, whole entry, looked up: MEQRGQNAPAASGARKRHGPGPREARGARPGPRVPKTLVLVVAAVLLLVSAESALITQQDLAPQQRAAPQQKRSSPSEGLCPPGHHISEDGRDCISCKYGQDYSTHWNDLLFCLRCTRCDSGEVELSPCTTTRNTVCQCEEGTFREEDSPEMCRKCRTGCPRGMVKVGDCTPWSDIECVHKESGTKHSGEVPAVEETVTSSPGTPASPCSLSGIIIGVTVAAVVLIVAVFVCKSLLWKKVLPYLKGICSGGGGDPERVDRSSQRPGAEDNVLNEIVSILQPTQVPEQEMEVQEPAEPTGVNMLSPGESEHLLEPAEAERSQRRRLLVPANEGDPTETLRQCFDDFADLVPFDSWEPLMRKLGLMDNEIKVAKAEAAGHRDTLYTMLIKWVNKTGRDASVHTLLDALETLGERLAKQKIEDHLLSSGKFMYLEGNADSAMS

This is a selection; strong and weak results do not stand in their true shares.

The assay deals with Tumor necrosis factor receptor superfamily member 10B (Homo sapiens) (UniProt O14763). Kind of assay: caspase-8 TRAIL sensitization, hit retest, confirmation, cell-based, NB7+caspase-8, with/without TRAIL, luminescence panel (AID 651596). Particulars: NB7 neuroblastoma + caspase-8, TRAIL sensitization, luminescence viability, mean of runs, at 10 µM, stronger effect = higher value; in the data active = activity above about 50%; inactive = the rest.
`CCCCCCCCCCCCCCCC1C[N+](C)(C)CCOP(C)(=O)O1` (configuration not stated): the activity was found to be 90%.

In the case of `O=[N+]([O-])c1cc([N+](=O)[O-])c(Nc2ccccn2)c([N+](=O)[O-])c1`, the activity was 55.4%.
